Results on one compound are retold here after US20140127136A1, “LIPOSOMES USEFUL FOR DRUG DELIVERY TO THE BRAIN” (Merrimack Pharmaceuticals, Inc., priority 2004, published 2014).

This series in a line: In vivo chemical stability and blood pharmacokinetics of free or liposomal CPT-11. The note with it: rats, 25 mg/kg i.v.

Molecules are shown by their SMILES. Counter-ions that a name gives are not always drawn.

`CCc1c2c(nc3ccc(OC(=O)N4CCC(N5CCCCC5)CC4)cc13)-c1cc3c(c(=O)n1C2)COC(=O)[C@]3(O)CC` [free CPT-11, Irinotecan hydrochloride]: the “conversion to SN-38 or the carboxylate form of CPT-11 in vivo” value is on record as “appreciable conversion to the carboxylate form of the drug”.
